Our source for the Km values is article PMC7067268, “Biosynthesis of plant tetrahydroisoquinoline alkaloids through an imine reductase route” (Chemical Science, 2019).

The chains behind the UniProt entries cited, without tags or fusion partners. Residues count along the entry.
UniProt Q948P7, 1-358: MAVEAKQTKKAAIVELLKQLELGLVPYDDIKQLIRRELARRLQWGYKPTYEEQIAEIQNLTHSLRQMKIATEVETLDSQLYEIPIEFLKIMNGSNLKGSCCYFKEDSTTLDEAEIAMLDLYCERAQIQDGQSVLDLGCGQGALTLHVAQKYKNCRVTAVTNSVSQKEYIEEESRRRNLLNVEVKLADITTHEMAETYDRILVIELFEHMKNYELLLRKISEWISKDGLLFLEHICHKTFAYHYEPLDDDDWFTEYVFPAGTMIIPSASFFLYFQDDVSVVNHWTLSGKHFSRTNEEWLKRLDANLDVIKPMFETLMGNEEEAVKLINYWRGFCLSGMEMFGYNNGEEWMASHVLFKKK

For the assay, the target named is Coclaurine N-methyltransferase (CNMT) (Coptis japonica, UniProt Q948P7).

Molecules are shown by their SMILES.

What is called Km is the substrate concentration at which the rate is half of its maximum.

For the compound `COc1cc2c(cc1OC)[C@H](Cc1ccccc1)NCC2`, the Km was determined as 378 µM. Then `COc1ccc([C@@H]2NCCc3cc(OC)c(OC)cc32)cc1OC`, with 289 µM; and `COc1cc2c(cc1OC)[C@H](c1cc(OC)c(OC)c(OC)c1)NCC2`, with 160 µM.
